Reference: ChEMBL document CHEMBL5120795, “Small-Molecule Inhibitors of Tankyrases as Prospective Therapeutics for Cancer” (J Med Chem, 2022)

Chains of the proteins cited; added tags and fusions are not shown. Lines headed by an entry give the natural chain unless they say otherwise; changes in a name come on top.
UniProt O88554: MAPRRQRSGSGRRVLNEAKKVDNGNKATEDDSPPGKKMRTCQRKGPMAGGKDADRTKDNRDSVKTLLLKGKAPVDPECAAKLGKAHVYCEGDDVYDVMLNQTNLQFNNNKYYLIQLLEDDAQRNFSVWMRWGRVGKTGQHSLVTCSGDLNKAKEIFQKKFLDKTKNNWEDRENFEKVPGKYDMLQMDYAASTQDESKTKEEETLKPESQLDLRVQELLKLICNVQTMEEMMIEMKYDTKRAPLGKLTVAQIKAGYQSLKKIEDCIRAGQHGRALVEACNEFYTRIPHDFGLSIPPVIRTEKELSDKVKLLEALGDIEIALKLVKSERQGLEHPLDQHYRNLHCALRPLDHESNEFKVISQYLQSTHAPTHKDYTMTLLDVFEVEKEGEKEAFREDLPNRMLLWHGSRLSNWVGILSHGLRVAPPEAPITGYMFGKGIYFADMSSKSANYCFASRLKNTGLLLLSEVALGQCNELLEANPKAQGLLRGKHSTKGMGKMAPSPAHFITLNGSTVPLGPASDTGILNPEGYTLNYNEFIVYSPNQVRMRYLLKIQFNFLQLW

Target: Poly [ADP-ribose] polymerase 2 (Mus musculus, UniProt O88554)

## O=c1[nH]nc2c3c(cccc13)N=C(CN1Cc3ccccc3C1)N2 [2X-121]
  IC50: 1 nM
